Reference: patent US20090053740A1, “AGGLUTINATION-BASED METHOD FOR FAST DETECTION, ISOLATION AND QUANTIFICATION OF APOPTOTIC CELLS” (CEDARS-SINAI MEDICAL CENTER, priority 2005, published 2009)

How the values were obtained:
L1210 cells = type: binding, murine

**Q.** `N.N.[Cl][Pt][Cl]` [cisplatin, cis-diamminodichloroplatinum] was tested. Which apoptosis induction (L1210R cells; 0.5 μg/ml) did it give?
**A.** did not induce apoptosis

**Q.** And the apoptosis induction (L1210R cells; 5 μg/ml)?
**A.** induced apoptosis

**Q.** `CN(Cc1cnc2nc(N)nc(N)c2n1)c1ccc(C(=O)N[C@@H](CCC(=O)O)C(=O)O)cc1` [methotrexate] was tested. Which apoptosis induction (L1210R cells; 100 μg/ml) did it give?
**A.** induced apoptosis

B1: PSL: Pisum sativum lectin, α-D-mannose-specific (protein, UniProt P02867 31-217; P02867 218-275, looked up)
Lectin beta chain: TETTSFLITKFSPDQQNLIFQGDGYTTKEKLTLTKAVKNTVGRALYSSPIHIWDRETGNVANFVTSFTFVINAPNSYNVADGFTFFIAPVDTKPQTGGGYLGVFNSAEYDKTTQTVAVEFDTFYNAAWDPSNRDRHIGIDVNSIKSVNTKSWKLQNGEEANVVIAFNAATNVLTVSLTYPNSLEEEN
Lectin alpha chain: VTSYTLSDVVSLKDVVPEWVRIGFSATTGAEYAAHEVLSWSFHSELSGTSSSKQAADA
**Q.** How did the “densitometric characteristics of lectin binding by apoptotic L1210R cells” value (L1210 cells) turn out when B1 was run?
**A.** resembled the characteristics of the apoptotic L1210S cells

Where two headings read alike, the source gives them in different places.
